Results: patent publication US6602888B2, “Use of α1C specific compounds to treat benign prostatic hyperplasia” (Synaptic Pharmaceutical Corporation, priority 1992, dated 2003)

Chains of the proteins cited; added tags and fusions are not shown.
UniProt P22002, whole entry: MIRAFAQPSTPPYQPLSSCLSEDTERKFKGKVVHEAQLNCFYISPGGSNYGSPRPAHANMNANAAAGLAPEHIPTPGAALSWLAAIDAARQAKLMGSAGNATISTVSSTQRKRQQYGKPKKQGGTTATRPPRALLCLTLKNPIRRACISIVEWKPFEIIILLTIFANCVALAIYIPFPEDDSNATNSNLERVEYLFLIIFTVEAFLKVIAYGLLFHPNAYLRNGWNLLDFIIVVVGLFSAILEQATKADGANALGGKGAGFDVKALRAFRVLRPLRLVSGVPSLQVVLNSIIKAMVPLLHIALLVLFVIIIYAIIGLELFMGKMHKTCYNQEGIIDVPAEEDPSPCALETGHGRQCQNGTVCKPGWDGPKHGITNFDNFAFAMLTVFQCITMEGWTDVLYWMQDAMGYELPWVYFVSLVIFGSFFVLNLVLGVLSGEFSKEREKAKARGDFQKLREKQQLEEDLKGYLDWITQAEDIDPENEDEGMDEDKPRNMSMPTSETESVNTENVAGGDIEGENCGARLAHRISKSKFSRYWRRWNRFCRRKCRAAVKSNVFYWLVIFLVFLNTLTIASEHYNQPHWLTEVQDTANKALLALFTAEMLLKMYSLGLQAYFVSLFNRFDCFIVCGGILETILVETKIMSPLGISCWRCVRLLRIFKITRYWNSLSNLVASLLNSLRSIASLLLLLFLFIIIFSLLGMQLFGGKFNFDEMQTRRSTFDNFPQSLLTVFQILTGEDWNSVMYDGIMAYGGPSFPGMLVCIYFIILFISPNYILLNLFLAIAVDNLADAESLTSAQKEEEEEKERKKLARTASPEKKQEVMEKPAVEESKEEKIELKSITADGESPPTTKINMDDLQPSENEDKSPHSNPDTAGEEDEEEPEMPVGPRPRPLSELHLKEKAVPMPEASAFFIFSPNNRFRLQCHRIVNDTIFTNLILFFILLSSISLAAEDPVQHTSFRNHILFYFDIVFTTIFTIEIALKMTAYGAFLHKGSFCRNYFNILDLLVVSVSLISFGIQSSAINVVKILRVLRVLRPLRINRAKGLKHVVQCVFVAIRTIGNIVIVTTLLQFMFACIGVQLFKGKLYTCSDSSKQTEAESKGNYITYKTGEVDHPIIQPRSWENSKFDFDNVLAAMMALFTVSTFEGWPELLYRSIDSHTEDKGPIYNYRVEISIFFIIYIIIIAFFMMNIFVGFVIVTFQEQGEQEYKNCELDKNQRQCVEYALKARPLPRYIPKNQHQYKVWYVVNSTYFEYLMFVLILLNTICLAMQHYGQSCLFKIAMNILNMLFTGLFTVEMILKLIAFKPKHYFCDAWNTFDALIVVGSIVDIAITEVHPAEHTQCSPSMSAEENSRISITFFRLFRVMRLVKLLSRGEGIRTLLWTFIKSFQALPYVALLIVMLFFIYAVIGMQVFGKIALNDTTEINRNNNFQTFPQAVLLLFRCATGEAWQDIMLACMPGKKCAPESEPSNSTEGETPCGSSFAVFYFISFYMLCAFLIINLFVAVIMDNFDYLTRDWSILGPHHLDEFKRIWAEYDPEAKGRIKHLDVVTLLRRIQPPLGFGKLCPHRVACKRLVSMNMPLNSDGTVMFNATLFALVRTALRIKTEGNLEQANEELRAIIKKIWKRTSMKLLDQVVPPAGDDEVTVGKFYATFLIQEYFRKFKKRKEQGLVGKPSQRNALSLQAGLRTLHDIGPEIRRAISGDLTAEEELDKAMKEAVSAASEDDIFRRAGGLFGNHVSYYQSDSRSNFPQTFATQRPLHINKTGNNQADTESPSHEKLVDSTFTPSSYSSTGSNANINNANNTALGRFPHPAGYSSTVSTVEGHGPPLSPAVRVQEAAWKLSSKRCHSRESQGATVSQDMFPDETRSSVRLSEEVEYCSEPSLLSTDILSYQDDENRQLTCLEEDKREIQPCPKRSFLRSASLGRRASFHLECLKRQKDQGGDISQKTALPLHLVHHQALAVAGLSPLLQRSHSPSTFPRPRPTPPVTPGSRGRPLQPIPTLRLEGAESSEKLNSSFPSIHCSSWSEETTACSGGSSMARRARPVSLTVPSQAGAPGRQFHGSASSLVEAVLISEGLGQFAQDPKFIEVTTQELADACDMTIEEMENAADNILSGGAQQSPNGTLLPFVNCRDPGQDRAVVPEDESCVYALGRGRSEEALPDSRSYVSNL
UniProt P14416, whole entry: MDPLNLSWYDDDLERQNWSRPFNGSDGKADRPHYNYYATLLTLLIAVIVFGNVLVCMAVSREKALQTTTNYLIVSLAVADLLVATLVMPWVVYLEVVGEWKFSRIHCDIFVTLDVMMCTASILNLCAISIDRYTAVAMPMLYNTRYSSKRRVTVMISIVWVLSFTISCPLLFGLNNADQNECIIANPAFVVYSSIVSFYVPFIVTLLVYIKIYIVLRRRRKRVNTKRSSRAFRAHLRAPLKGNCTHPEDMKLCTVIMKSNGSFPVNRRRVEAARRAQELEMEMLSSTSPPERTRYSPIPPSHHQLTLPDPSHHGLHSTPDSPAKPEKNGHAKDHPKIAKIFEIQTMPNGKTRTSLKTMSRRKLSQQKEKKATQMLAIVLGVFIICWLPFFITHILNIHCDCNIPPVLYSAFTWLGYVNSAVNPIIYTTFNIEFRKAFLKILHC
UniProt P25021, whole entry: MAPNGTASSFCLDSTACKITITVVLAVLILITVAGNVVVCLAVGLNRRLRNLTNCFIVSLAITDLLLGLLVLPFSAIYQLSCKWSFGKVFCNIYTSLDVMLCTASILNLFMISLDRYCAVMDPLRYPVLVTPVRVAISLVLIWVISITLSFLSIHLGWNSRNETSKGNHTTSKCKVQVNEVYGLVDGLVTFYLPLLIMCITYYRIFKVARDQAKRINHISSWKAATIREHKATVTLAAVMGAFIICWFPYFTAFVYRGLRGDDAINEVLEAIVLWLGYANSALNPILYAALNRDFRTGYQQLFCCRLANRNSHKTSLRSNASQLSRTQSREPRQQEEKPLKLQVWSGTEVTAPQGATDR
UniProt P35367, whole entry: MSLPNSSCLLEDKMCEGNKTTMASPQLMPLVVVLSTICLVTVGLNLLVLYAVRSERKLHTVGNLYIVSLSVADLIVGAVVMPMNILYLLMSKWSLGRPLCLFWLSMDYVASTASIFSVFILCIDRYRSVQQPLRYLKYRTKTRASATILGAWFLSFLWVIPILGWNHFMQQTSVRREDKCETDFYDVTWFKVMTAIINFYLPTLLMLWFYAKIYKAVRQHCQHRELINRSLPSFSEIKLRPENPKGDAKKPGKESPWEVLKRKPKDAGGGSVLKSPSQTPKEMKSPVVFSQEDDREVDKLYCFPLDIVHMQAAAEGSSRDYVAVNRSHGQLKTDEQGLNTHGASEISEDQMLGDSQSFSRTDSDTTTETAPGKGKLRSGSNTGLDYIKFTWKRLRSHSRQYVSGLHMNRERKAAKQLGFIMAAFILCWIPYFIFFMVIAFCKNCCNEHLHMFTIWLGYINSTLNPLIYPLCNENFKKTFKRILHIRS
UniProt P28223, whole entry: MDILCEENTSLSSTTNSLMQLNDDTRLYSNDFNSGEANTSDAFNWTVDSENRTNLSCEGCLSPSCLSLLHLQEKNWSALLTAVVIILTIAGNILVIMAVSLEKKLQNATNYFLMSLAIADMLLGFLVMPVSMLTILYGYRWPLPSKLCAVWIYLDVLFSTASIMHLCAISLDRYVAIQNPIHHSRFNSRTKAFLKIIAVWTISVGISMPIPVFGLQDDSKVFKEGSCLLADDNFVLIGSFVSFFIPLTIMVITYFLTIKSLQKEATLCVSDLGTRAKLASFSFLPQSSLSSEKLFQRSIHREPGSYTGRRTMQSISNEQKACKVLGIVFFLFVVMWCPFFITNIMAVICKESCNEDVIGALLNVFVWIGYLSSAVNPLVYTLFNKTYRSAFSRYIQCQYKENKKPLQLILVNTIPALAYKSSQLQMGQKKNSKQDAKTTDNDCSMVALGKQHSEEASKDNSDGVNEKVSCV

Assays:
calcium channels = molecular target: T1, calcium channels (Rattus norvegicus, UniProt P22002); test: [3H]nitrendipine competition binding, calcium channels, rat cardiac muscle membranes
T1 construct: from tissue; host or cells: rat cardiac muscle membranes

human D2 receptor = human D2 receptor (Homo sapiens, UniProt P14416); test: [3H]spiperone binding, dopamine D2 receptor
[1] = molecular target: human histamine H2 receptor (Homo sapiens, UniProt P25021); test: [3H]tiotidine binding, histamine H2 receptor
[2] = molecular target: human histamine H1 receptor (Homo sapiens, UniProt P35367); test: [3H]mepyramine binding, histamine H1 receptor
human 5HT2 receptor = human 5HT2 receptor (Homo sapiens, UniProt P28223); test: [3H]ketanserin competition binding, 5HT2 receptor

S-niguldipine
Calcium Channel (pK1) (calcium channels): 8.04
Dopamine D2 (pK1) (human D2 receptor): <7.0
Histamine H2 (pK1) [1]: 6.24
Histamine H1 (pK1) [2]: 6.78
Serotonin 5HT2 (pK1) (human 5HT2 receptor): <7.0
